Results reported in patent publication US20090131470A1, “PYRAZOLE-SUBSTITUTED BENZIMIDAZOLE DERIVATIVES FOR USE IN THE TREATMENT OF CANCER AND AUTOIMMUNE DISORDERS” (priority 2005, published 2009).

Chains of the proteins cited; added tags and fusions are not shown.
UniProt O14757, whole entry: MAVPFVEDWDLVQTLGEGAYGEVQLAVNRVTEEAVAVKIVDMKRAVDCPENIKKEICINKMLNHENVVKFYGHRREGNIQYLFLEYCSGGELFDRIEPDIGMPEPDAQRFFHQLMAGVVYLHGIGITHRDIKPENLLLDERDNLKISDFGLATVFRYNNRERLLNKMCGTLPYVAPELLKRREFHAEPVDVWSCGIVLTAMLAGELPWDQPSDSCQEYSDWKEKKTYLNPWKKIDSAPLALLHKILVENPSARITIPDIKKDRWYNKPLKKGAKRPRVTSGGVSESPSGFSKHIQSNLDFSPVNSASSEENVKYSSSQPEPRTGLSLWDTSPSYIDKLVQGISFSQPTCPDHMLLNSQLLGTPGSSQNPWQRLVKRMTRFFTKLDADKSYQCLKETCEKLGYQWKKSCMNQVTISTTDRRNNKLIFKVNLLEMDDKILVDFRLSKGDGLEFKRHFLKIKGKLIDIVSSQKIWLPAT
UniProt O15530, whole entry: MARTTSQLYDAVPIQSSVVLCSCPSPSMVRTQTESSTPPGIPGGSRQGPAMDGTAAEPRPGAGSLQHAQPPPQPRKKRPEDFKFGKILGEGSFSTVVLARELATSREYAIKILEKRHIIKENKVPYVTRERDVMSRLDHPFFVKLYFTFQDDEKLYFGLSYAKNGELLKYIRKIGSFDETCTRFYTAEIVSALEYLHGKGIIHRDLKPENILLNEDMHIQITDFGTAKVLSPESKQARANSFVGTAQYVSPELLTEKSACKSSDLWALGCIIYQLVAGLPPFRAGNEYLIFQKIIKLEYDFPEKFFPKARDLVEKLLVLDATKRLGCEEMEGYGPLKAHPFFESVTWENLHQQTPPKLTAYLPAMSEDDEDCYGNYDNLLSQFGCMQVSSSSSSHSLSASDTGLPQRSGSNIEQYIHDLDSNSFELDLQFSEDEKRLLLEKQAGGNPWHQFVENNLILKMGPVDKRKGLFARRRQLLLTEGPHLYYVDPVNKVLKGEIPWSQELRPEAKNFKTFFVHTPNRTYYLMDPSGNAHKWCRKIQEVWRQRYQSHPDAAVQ
UniProt P31749, whole entry: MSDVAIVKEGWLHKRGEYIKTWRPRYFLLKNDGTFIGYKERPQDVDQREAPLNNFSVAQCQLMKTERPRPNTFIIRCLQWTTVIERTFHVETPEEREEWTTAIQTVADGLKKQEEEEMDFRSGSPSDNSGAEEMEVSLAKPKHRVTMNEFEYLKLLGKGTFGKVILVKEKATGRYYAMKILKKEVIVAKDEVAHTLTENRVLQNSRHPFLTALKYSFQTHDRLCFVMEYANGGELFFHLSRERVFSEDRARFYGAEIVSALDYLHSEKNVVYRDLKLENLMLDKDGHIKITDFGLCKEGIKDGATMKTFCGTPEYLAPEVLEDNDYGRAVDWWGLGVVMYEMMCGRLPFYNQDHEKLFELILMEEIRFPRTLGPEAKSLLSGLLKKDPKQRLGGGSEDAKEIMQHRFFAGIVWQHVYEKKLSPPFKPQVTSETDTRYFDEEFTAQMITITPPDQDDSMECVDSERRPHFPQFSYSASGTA

Legend:
Assay type in all cases: biochemical
[1] = biological target: PKA (Homo sapiens, UniProt P17612); assay: PKA kinase assay (Kemptide substrate); details: read-out: PKA IC50, 100 μM ATP
[2] = biological target: GST-Chk1 enzyme (Homo sapiens, UniProt O14757); assay: Chk1 kinase assay (33P Chktide phosphorylation); details: read-out: CHK-1 IC50; 0.01 mM ATP, 40 minutes at 30° C.
[3] = biological target: PDK1 (Homo sapiens, UniProt O15530); assay: PDK1 kinase assay (33P peptide phosphorylation); details: read-out: PDK-1 IC50; 0.01 mM ATP, 60 min at 30° C.
[4] = biological target: CDK-2 enzyme, complexed with cyclin A (Homo sapiens, UniProt P24941); assay: CDK2 kinase assay (33P peptide phosphorylation); details: read-out: CDK-2 IC50; 0.1 mM ATP, cyclin A complex
[5] = biological target: Akt1 (Homo sapiens, UniProt P31749); assay: Akt1 kinase assay (Histone H1 substrate); details: read-out: AKT-1 IC50, 200 μM ATP
Protocol: Assays for the cyclin dependent kinase activity were carried out by monitoring the phosphorylation of a synthetic peptide, […]. The assay mixture containing the inhibitor and CDK-2 enzyme, complexed with cyclin A (0.4 U/ml) was mixed together in a microtiter plate in a final volume of 50 μl and incubated for 40 min at 30° C. The assay mixture contained 0.1 mM unlabeled ATP, 0.01 μCi/μl ^33P-γ-ATP, 0.03 mM peptide, 0.1 mg/ml BSA, 7.5 mM magnesium acetate, 50 mM HEPES-NaOH, pH 7.5. The reaction was stopped by adding 50 μl of 50 mM phosphoric acid. 90 μl of the mixture were transferred to a pre-wetted 96-well Multiscreen MAPHNOB filtration plate (Millipore) and filtered on a vacuum manifold. The filter plate was washed with 3 successive additions of 200 μl 50 mM phosphoric acid and then with 100 μl methanol. The filtration plate was dried for 10 min at 65° C., scintillant added and phosphorylated peptide quantified in a scintillation counter (Trilux, PerkinElmer)
Protocol for the Akt assay is the same for CDK2 except that, 3 nM Akt1 (Upstate) was used with Histone H1 as substrate with a final ATP concentration of 200 μM. The reaction was incubated at 30° C. for 40 minutes.

Q: Which IC50 [1] does the source give for `Cc1[nH]nc(-c2nc3ccc(-c4cc5cc(Cl)ccc5[nH]4)cc3[nH]2)c1C(=O)NC1CCNCC1` here?
A: 3.62 µM

Q: And the IC50 [2]?
A: 0.058 µM

Q: And the IC50 [3]?
A: 0.155 µM

Q: And the IC50 [4]?
A: 12.8 µM

Q: And the IC50 [5]?
A: > 10 µM
